The test system of this test is fXa (bovine fXa). Description: Plasma anti-fXa activity assay (modified Coamatic LMWH kit). Format: in vivo. On the procedure:
The effect of r-Antidote on enoxaparin-induced anticoagulation was measured by plasma anti-fXa activity assay. The anti-fXa activity assay is based on a modified LMWH assay kit (Coamatic LMWH) which expresses the anticoagulant activity of LMWH in terms of anti-fXa units. The anti-fXa units assay measures residual fXa (bovine fXa) activity in plasma using a fXa chromogenic substrate (S2732). Known concentrations of enoxaparin standard (U/ml) were used to construct a standard curve for measurement of anti-fXa units (U/ml) in unknown samples.
The r-Antidote was administered as a bolus at a dose of 1 mg, 2 mg, or 4 mg.
In the same model, fondaparinux was administrated at a dose of 1 mg/kg (IV bolus) followed by r-Antidote (4 mg bolus starting at 5 minutes+4 mg/hr infusion for the duration of the experiment).
The anti-fXa activity for fondaparinux was expressed as g/ml by using a known concentration of fondaparinux as a standard. When measured using enoxaparin as the standard, 1 g/ml fondaparinux was equivalent to 0.66 U/ml enoxaparin in rat plasma, or 0.80 U/ml enoxaparin in human plasma.

B1: r-Antidote: fXa derivative lacking the 6-39 amino acid residues of SEQ ID NO. 3, expressed in CHO cells, after removal of the linker (SEQ ID NO. 13) (protein)
chain: ANSFLFWNKYKDGDQCETSPCQNQGKCKDGLGEYTCTCLEGFEGKNCELFTRKLCSLDNGDCDQFCHEEQNSVVCSCARGYTLADNGKACIPTGPYPCGKQTLERIVGGQECKDGECPWQALLINEENEGFCGGTILSEFYILTAAHCLYQAKRFKVRVGDRNTEQEEGGEAVHEVEVVIKHNRFTKETYDFDIAVLRLKTPITFRMNVAPACLPERDWAESTLMTQKTGIVSGFGRTHEKGRQSTRLKMLEVPYVDRNSCKLSSSFIITQNMFCAGYDTKQEDACQGDAGGPHVTRFKDTYFVTGIVSWGEGCARKGKYGIYTKVTAFLKWIDRSMKTRGLPKAKSHAPEVITSSPLK
As for B1, the “reversal of increase in anti-fXa activity due to fondaparinux” value (fondaparinux 1 mg/kg IV bolus, r-Antidote 4 mg bolus + 4 mg/hr infusion) is “rapidly and substantially reversed”. For the same molecule, for the setting “r-Antidote bolus 1 mg, 2 mg or 4 mg”, the “reversal of enoxaparin-induced anticoagulation (plasma anti-fXa units)” value was “reversed the enoxaparin-induced anticoagulation in a dose-responsive manner”.

The values are drawn from patent publication US20250186563A1, “UNIT DOSE FORMULATION OF ANTIDOTES FOR FACTOR XA INHIBITORS AND METHODS OF USING THE SAME” (Alexion Pharmaceuticals, Inc., priority 2009, published 2025).
